# Experimental data taken from ChEMBL document CHEMBL2407029 (Bioorg Med Chem Lett, 2013).
# Assay: Displacement of [131I]-[D-Ala2,4'-I-Phe8]alpha-Neoendorphin from opioid receptor in CD-1 mouse brain after 90 mins by competitive binding assay
# Details: strain CD-1, Brain
compound,measurement,value
CN(C(=O)Cc1ccc(Cl)c(Cl)c1)C1CCCCC1N1CCCC1 (stereo unspecified),Ki,> 500 nM
